Patent publication US8425880B1, “Metal-containing materials for treatment of bacterial conditions” (priority 2007, dated 2013)

System: C. difficile
Parameters: species or system hamsters
Conditions: hamster, in vivo
Experimental: Hamsters received one dose of clindamycin orogastrically (10 mg/kg). In some experiments, the hamsters were inoculated orogastrically with 10^3-10^4 C. difficile spores one day after exposure to clindamycin. In other experiments, no spores were given and the Clindamycin-treated hamsters were allowed to acquire infection from their environment. To assess colonization, three fecal pellets were collected from each hamster, and the pellets were solubilized in sterile PBS or ethanol and then swabbed onto C. difficile-selective agar and cultured anaerobically at 36° C. for 24-28 hours. Colonization was considered positive when feces yielded colonies with typical C. difficile morphology that fluoresced green under UV light. Colonized hamsters were assigned to treatment groups that received orogastric treatment with nanocrystalline silver (40-120 mg/kg/day), placebo suspension, or vancomycin (25 mg/kg/day). Prophylactic treatments were given once per day for three days prior to, and on, the day of clindamycin treatment.

Q: For Nanocrystalline silver [Nano-Ag], which colonization is on record?
A: 0%
